Measurements from PubChem BioAssay (NCI).
The entries are a selection whose mix differs from that of the whole data set.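 In brief: 96-well plates, 48 h treatment, single concentration, percent growth endpoint.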 Active and inactive are the calls of the source. How the source made its calls: active means growth percent below 10; inactive means the rest.

Assays:
Test in all cases: NCI-60 one-dose screen, 48 h (100 = growth as untreated, 0 = no growth, -100 = all killed)
Details in all cases: 10 µM
NCI-H23 lung = tested on: NCI-H23 lung
NCI-H226 lung = tested on: NCI-H226 lung
NCI-H322M lung = tested on: NCI-H322M lung
HOP-62 NSCLC = tested on: HOP-62 NSCLC
NCI-H460 lung = tested on: NCI-H460 lung
HOP-92 NSCLC = tested on: HOP-92 NSCLC
NCI-H522 lung = tested on: NCI-H522 lung
A549/ATCC NSCLC = tested on: A549/ATCC NSCLC
786-0 renal = tested on: 786-0 renal
COLO 205 colon = tested on: COLO 205 colon
DU-145 prostate = tested on: DU-145 prostate
K-562 leukemia = tested on: K-562 leukemia
MDA-MB-231 breast = tested on: MDA-MB-231 breast
RXF 393 renal = tested on: RXF 393 renal
SF-268 CNS = tested on: SF-268 CNS
SF-295 CNS = tested on: SF-295 CNS
SF-539 CNS = tested on: SF-539 CNS
UACC-257 melanoma = tested on: UACC-257 melanoma
M14 melanoma = tested on: M14 melanoma
MALME-3M melanoma = tested on: MALME-3M melanoma

SMILES	growth (NCI-H23 lung)	growth (NCI-H226 lung)	growth (NCI-H322M lung)	growth (HOP-62 NSCLC)	growth (NCI-H460 lung)	growth (HOP-92 NSCLC)	growth (NCI-H522 lung)	growth (A549/ATCC NSCLC)	growth (786-0 renal)	growth (COLO 205 colon)	growth (DU-145 prostate)	growth (K-562 leukemia)	growth (MDA-MB-231 breast)	growth (RXF 393 renal)	growth (SF-268 CNS)	growth (SF-295 CNS)	growth (SF-539 CNS)	growth (UACC-257 melanoma)	growth (M14 melanoma)	growth (MALME-3M melanoma)
Fc1cccc(CBr)c1	inactive: 102%	inactive: 102%	inactive: 93.2%	inactive: 99.2%	inactive: 108%	inactive: 113%	inactive: 108%	inactive: 101%	inactive: 90.3%	inactive: 115%	inactive: 107%	inactive: 97%	inactive: 111%	inactive: 113%	inactive: 92.1%	inactive: 97.9%	inactive: 103%	inactive: 116%	inactive: 102%	–
O/N=C/c1ccc(N(CCCl)CCCl)cc1	inactive: 89.4%	inactive: 76.2%	inactive: 101%	inactive: 98.3%	inactive: 54.4%	inactive: 104%	inactive: 75.2%	inactive: 83.9%	inactive: 94.9%	inactive: 112%	inactive: 110%	inactive: 97.8%	inactive: 110%	–	inactive: 97.3%	inactive: 72.6%	inactive: 93.2%	inactive: 79.9%	inactive: 102%	inactive: 105%
O=C1CCN(CCc2ccccc2)CC1	inactive: 79%	inactive: 102%	inactive: 98%	inactive: 76.7%	inactive: 107%	inactive: 95.3%	inactive: 83.4%	inactive: 97%	inactive: 86.3%	–	inactive: 132%	inactive: 116%	inactive: 100%	inactive: 98.2%	inactive: 120%	inactive: 102%	inactive: 94.9%	inactive: 101%	inactive: 67.8%	inactive: 99.1%
BrCCN(CCBr)c1ccc2c(c1)Cc1ccccc1-2	inactive: 12%	inactive: 43.7%	inactive: 82.6%	inactive: 43%	active: 4.31%	–	inactive: 32.1%	inactive: 32.5%	inactive: 10%	inactive: 78.7%	active: 1.16%	inactive: 38.3%	inactive: 78.1%	inactive: 30.9%	inactive: 18.7%	active: 8.74%	inactive: 16.3%	inactive: 67.9%	inactive: 18.8%	inactive: 45%
O=CC(O)C(O)C(O)C(O)CN(CCCl)CCCl (stereo not given)	inactive: 101%	inactive: 101%	inactive: 102%	inactive: 106%	inactive: 104%	–	inactive: 86.2%	inactive: 99.7%	inactive: 102%	inactive: 99%	inactive: 110%	inactive: 104%	inactive: 108%	inactive: 102%	inactive: 100%	inactive: 101%	inactive: 92.2%	inactive: 93.7%	inactive: 98.9%	inactive: 95.7%
Cc1ccccc1NC1(C#N)CCN(Cc2ccccc2)CC1	inactive: 104%	inactive: 112%	inactive: 95.5%	inactive: 106%	inactive: 106%	inactive: 75.2%	inactive: 108%	inactive: 97.3%	inactive: 102%	inactive: 112%	inactive: 118%	–	inactive: 117%	inactive: 122%	–	inactive: 105%	inactive: 96.8%	inactive: 112%	inactive: 105%	inactive: 107%
CCOC(=O)c1ccc(N(CCCl)CCCl)cc1	–	inactive: 96.9%	–	inactive: 101%	inactive: 102%	inactive: 80.5%	inactive: 85.5%	inactive: 89.9%	inactive: 97.5%	inactive: 102%	inactive: 116%	inactive: 86.6%	inactive: 108%	inactive: 108%	inactive: 109%	inactive: 99.2%	inactive: 97.3%	inactive: 97.8%	inactive: 106%	inactive: 109%
c1ccc(CN2CCC(Nc3ccccc3)CC2)cc1	inactive: 93.2%	inactive: 97.9%	inactive: 102%	inactive: 89.7%	inactive: 109%	inactive: 85.7%	inactive: 102%	inactive: 124%	inactive: 96%	inactive: 102%	inactive: 113%	–	inactive: 92.8%	inactive: 102%	inactive: 116%	inactive: 97.2%	inactive: 104%	inactive: 146%	inactive: 106%	inactive: 102%
Cc1cccc(NC2(C#N)CCN(Cc3ccccc3)CC2)c1	inactive: 108%	inactive: 107%	inactive: 103%	inactive: 101%	inactive: 111%	inactive: 90.3%	inactive: 114%	inactive: 98.3%	inactive: 102%	inactive: 109%	inactive: 123%	inactive: 103%	inactive: 128%	inactive: 121%	–	inactive: 102%	inactive: 97.6%	inactive: 110%	inactive: 95.1%	inactive: 110%
O=P1(N(CCCl)CCCl)SCCCS1	inactive: 98.3%	inactive: 110%	inactive: 132%	inactive: 110%	inactive: 111%	–	inactive: 111%	inactive: 104%	inactive: 102%	inactive: 125%	inactive: 116%	inactive: 119%	inactive: 109%	inactive: 126%	inactive: 101%	inactive: 109%	inactive: 137%	inactive: 104%	inactive: 114%	inactive: 142%
CC(=O)N(c1ccccc1)C1CCNCC1	inactive: 111%	inactive: 103%	inactive: 120%	inactive: 108%	inactive: 112%	inactive: 129%	inactive: 104%	inactive: 112%	inactive: 117%	inactive: 113%	inactive: 130%	inactive: 110%	inactive: 113%	inactive: 111%	inactive: 123%	inactive: 103%	inactive: 105%	inactive: 120%	inactive: 116%	–
Cc1cccc(CN(CCCl)CCCl)c1	inactive: 89.5%	inactive: 92.6%	inactive: 96.1%	–	–	inactive: 80.5%	inactive: 63.2%	inactive: 94.2%	inactive: 99.6%	inactive: 88.4%	inactive: 102%	inactive: 96.2%	inactive: 105%	inactive: 97.4%	–	inactive: 98.5%	inactive: 83.5%	inactive: 90.2%	inactive: 91.8%	inactive: 89.8%
O=C1CCN(Cc2ccccc2)CC1	inactive: 97.5%	–	inactive: 102%	inactive: 120%	inactive: 108%	inactive: 69.5%	inactive: 105%	inactive: 94.5%	inactive: 103%	–	inactive: 106%	inactive: 91.4%	inactive: 95.4%	inactive: 114%	inactive: 105%	inactive: 107%	inactive: 110%	inactive: 105%	inactive: 103%	inactive: 106%
OCC#CCN(CCCl)CCCl	–	inactive: 89.4%	–	inactive: 94.1%	inactive: 100%	inactive: 83.1%	inactive: 115%	inactive: 91.8%	inactive: 98.8%	inactive: 86.4%	inactive: 102%	inactive: 87.4%	inactive: 104%	inactive: 89.2%	inactive: 92.3%	inactive: 96.3%	inactive: 98.8%	inactive: 96.7%	inactive: 102%	inactive: 89.5%
